Experimental data as given in PubChem BioAssay AID504414 (Broad Institute, 2011).
Only a part is listed here, and it is no random draw. The source made the active and inactive calls.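 The calls were made as follows: active = highest replicate inhibition of at least 40%; inactive = the rest.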

The compounds below were run against Golgi-associated PDZ and coiled-coil motif-containing protein (Homo sapiens) (UniProt Q9HD26) (assay: disruption of CAL PDZ-reporter peptide interaction – biochemical, fluorescence polarization, Cer-tagged CAL PDZ, HTS, primary screen (AID 504414;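 also: plate controls were DMSO neutral control wells for no effect and unlabeled competitor peptide control wells for full effect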)). Settings: purified CAL PDZ, TMR-peptide fluorescence polarization, 1 h; at 20 µM; active compounds read high.

SMILES | inhibition
Cc1cc(SC(NC=O)C(Cl)(Cl)Cl)ncn1 (configuration not stated) | inactive: -1.07%
O=P(Nc1ccccn1)(c1cccc2ccccc12)c1cccc2ccccc12 | inactive: -0.83%
O=[N+]([O-])c1ccc(Nc2ccc(Oc3ccc([N+](=O)[O-])cc3[N+](=O)[O-])cc2)c([N+](=O)[O-])c1 | inactive: -0.529%
CCOC(=O)Nc1ccc([As](=O)(O)O)c(O)c1 | inactive: -0.274%
CC1CCNP(=O)(N(CCCl)CCCl)O1 (configuration not stated) | inactive: 26%
CCCCOc1ccc(C(=O)NCC2(N3CCCCC3)CCCCC2)cc1OC | inactive: -4.48%
Cc1cc(SC(NC(=O)c2ccccc2)C(Cl)(Cl)Cl)nc(C(C)C)n1 (configuration not stated) | inactive: 0.258%
O=C(OC1CN2CCC1CC2)c1cccc([N+](=O)[O-])c1 (configuration not stated) | inactive: -0.851%
CCOC(=O)c1ccc(NC(=O)C(C)(CCl)SC)cc1 (configuration not stated) | inactive: -0.725%
CCC(C)N(CC(C)C)C(=S)SC(NC(C)=O)C(Cl)(Cl)Cl (configuration not stated) | inactive: 0.248%
COP1(=S)c2c(C)nn(CCC#N)c2N=C(c2ccc(F)cc2)N1C (configuration not stated) | inactive: -1.22%
O=C(COc1ccccc1)OC1CN2CCC1CC2 (configuration not stated) | inactive: -2.54%
O=C(Nc1ccncc1[N+](=O)[O-])c1ccc([N+](=O)[O-])cc1[N+](=O)[O-] | inactive: -0.153%
COc1ccccc1CNC(=O)COC(=O)C(O)(c1ccccc1)c1ccccc1 | inactive: -0.307%
CN(C(=O)Cc1ccc(Cl)c(Cl)c1)[C@@H]1CCCC[C@H]1N1CCCC1 | inactive: -0.256%
CC(C)/C=N\N=C(\N)N[N+](=O)[O-] | inactive: -1.08%
CC1(CBr)Cn2c(nc3ccccc3c2=O)S1 (configuration not stated) | inactive: -0.64%
CCC1=CC2Cc3nc4ccc(Cl)cc4c(N)c3C(C1)C2 (configuration not stated) | inactive: -10.3%
O=P1(Nc2ccccn2)COc2ccccc2OC1 | inactive: -0.109%

SMILES | inhibition
CCOP(=O)(NC(=NC(C)c1ccccc1)NC(C)c1ccccc1)OCC (configuration not stated) | inactive: -0.433%
CCOP(=O)(Nc1ccc(C)cn1)OCC | inactive: -0.414%
Clc1n[nH]nc1-c1nn[nH][15n]1 | inactive: -1.75%
CC(C)(C)C(=O)NC(Sc1ncccn1)C(Cl)(Cl)Cl (configuration not stated) | inactive: -2.22%
O=P1(Nc2ncccn2)COc2ccccc2OC1 | inactive: -0.588%
Nc1cccc([As](=O)(O)c2ccccc2)c1 | inactive: -0.2%
O=[As](O)(c1cccs1)c1cccs1 | inactive: 0.775%
Cc1ccc(OCC(=O)OC2CN3CCC2CC3)cc1 (configuration not stated) | inactive: -3.68%
NS(=O)(=O)c1cccc(NC(=O)COC(=O)C(O)(c2ccccc2)c2ccccc2)c1 | inactive: -0.643%
O=P1(Nc2ccc(Br)cn2)COc2ccccc2OC1 | inactive: -1.29%
Cc1nn(-c2ccccc2)c2c1P(=O)(N1CCOCC1)N(C)C(c1ccccc1)=N2 (configuration not stated) | inactive: -0.645%
Cc1ccc(C(=O)OC2CN3CCC2CC3)cc1 (configuration not stated) | inactive: -0.192%
CC1CCC(C(C)C)C(OP(=O)(Nc2ccccn2)c2ccccc2)C1 (configuration not stated) | inactive: -4.75%
CN(C)C1(CNC(=O)c2ccc(S(C)(=O)=O)cc2)CCCCC1 | inactive: -0.624%
O=C(/C=C/c1ccccc1)OC1CN2CCC1CC2 (configuration not stated) | inactive: -1.28%
CCCC1OP(=O)(Nc2ccccc2)OCC1CC (configuration not stated) | inactive: -1.37%
NC(=O)Nc1ccc([As](=O)(O)O)cc1 | inactive: 0.354%
N#CCCN(C(=O)COC(=O)C(O)(c1ccccc1)c1ccccc1)c1ccc(F)cc1 | inactive: -1.74%
CN(C(=O)Cc1ccccc1)[C@@H]1CC[C@]2(CCCO2)C[C@H]1N1CCCC1 | inactive: -0.33%

SMILES | inhibition
CCOP1(=S)c2c(C)nn(CCC#N)c2N=C(c2ccc(F)cc2)N1C (configuration not stated) | inactive: -0.0185%
CN(C)C(=O)c1cc([N+](=O)[O-])cc2c1-c1c(cc([N+](=O)[O-])cc1[N+](=O)[O-])C2=O | inactive: 0.968%
CN(C(=O)Cc1ccc(Cl)c(Cl)c1)[C@H]1CC[C@@]2(CCCO2)C[C@@H]1N1CCCC1 | inactive: -1.47%
CCOP1(=S)c2c(C)nn(CCC#N)c2N=C(c2ccccc2F)N1C (configuration not stated) | inactive: -2.61%
O=P(Nc1nccs1)(Oc1ccccc1)Oc1ccccc1 | inactive: 0.669%
O=P(Nc1nccs1)(c1ccccc1)c1nc2ccccc2s1 (configuration not stated) | inactive: -0.032%
CS(=O)(=O)c1cc([N+](=O)[O-])c2no[n+]([O-])c2c1 | inactive: 0.0772%
O=C(O)COc1ccc([As](=O)(O)O)cc1[N+](=O)[O-] | inactive: -0.86%
Nc1ccccc1[As](=O)(O)c1ccccc1 | inactive: -0.152%
Cc1ccc(NCCc2c([N+](=O)[O-])cc([N+](=O)[O-])cc2[N+](=O)[O-])cc1 | inactive: -0.202%
CCCOP(=S)(Nc1nc(N)cc(=O)[nH]1)OCCC | inactive: -1.43%
COc1cc(C2NCCC3(OCCO3)C2(C)C)cc(OC)c1OC (configuration not stated) | inactive: -0.664%
CCOP(=O)(Nc1cccc2ccccc12)OCC | inactive: -2.9%
O=C(OC1CN2CCC1CC2)c1ccc(Cl)cc1 (configuration not stated) | inactive: -0.746%
O=[As](O)(O)c1cccnc1 | inactive: -0.331%
COc1cc(C(=O)NCC2(N3CCOCC3)CCCCC2)cc(Cl)c1OC(C)C | inactive: -1.23%
CS(=O)(=O)c1ccc(Cl)c(NC(=O)COC(=O)C(O)(c2ccccc2)c2ccccc2)c1 | inactive: -1.19%
Cc1cccc(OCC(=O)OC2CN3CCC2CC3)c1 (configuration not stated) | inactive: -0.892%
O=[As](O)(c1cccc(O)c1)c1cccc(O)c1 | inactive: 0.0975%
